In patent publication US8598312B2, “Inhibitors of antigen presentation by MHC class II molecules” (Provid Pharmaceuticals, Inc., priority 2003, dated 2013):

System: DR1 (HLA-DR molecules)
Settings: read-out: Inhibition of peptide binding IC50 DR1

## CC(=O)N[C@H](C(=O)N[C@@H](CCCNC(=N)N)C(=O)N1Cc2ccccc2C[C@H]1C(=O)N[C@@H](Cc1ccccc1)C(=O)N1CCCC[C@H]1C(N)=O)C1CCCC1 [Ac(Cpg)R(Tic)F(hPro), Ac(Cpg)R(Tic)F(homo Pro)]
  IC50: > 100 µM
